Values of other authors, collected in patent US20200268817A1, “CANNABINOID COMPOSITIONS, METHODS OF MANUFACTURE AND USE THEREOF” (priority 2016, published 2020).

Details: inhaled, pulmonary assimilation

## CCCCCc1cc(O)c2c(c1)OC(C)(C)[C@@H]1CCC(C)=C[C@@H]21 [THC, Tetrahydrocannabinol]
  time to maximum plasma concentration: within minutes
